{"source": "patent US4075332A", "about": "(priority 1976, dated 1978)", "key": {"Spider mites": {"system": "Spider mites", "experiment": "Mites, Contact", "settings": "Table IX, contact/systemic not stated"}, "Mexican bean beetle": {"system": "Mexican bean beetle", "experiment": "Mexican Bean Beetle larvae test (treated bean leaves)", "settings": "Table IX"}, "Southern army worm": {"system": "Southern army worm", "experiment": "Southern Army Worm test (treated bean leaves)", "settings": "Table IX"}, "Corn rootworm larvae": {"system": "Corn rootworm larvae", "experiment": "Corn Root Worm soil test", "settings": "Table IX, 7200 min"}, "Bean aphids": {"system": "Bean aphids", "experiment": "Aphid, Contact", "settings": "Table IX, contact/systemic not stated, 2880 min"}, "House fly": {"system": "House fly", "experiment": "Housefly spray test", "settings": "Table IX, 2880 min"}}, "data": [{"substance": "O-Ethyl S-n-Propyl S'-3-n-Propylthiopropyl Dithiophosphate", "values": [{"measurement": "Mortality Produced at 50 ppm, % - Spider Mites", "setting": "Spider mites", "result": 100, "unit": "%"}, {"measurement": "Mortality Produced at 50 ppm, % - Mexican Bean Beetles", "setting": "Mexican bean beetle", "result": 100, "unit": "%"}, {"measurement": "Mortality Produced at 50 ppm, % - Southern Army Worm", "setting": "Southern army worm", "result": 100, "unit": "%"}, {"measurement": "Corn Rootworm Mortality, % at 2.5 ppm", "setting": "Corn rootworm larvae", "result": 0, "unit": "%"}, {"measurement": "Mortality Produced at 50 ppm, % - Bean Aphids", "setting": "Bean aphids", "result": 100, "unit": "%"}, {"measurement": "Mortality Produced at 50 ppm, % - Houseflies", "setting": "House fly", "result": 100, "unit": "%"}]}]}
